#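 Cells were grown in 96-well plates and exposed to each compound for 48 hours at five concentrations; endpoints were interpolated linearly between bracketing concentrations, or set to the highest concentration if not reached. Abbreviation: GI50, concentration required for 50% inhibition of growth. Definition used: TGI = concentration required for complete inhibition of growth.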
# Legend:
# Test in all cases: DTP human tumour cell line panel, 48 h
# [1] = tested on: TK-10 renal
# [2] = tested on: MOLT-4 leukemia
# [3] = tested on: HOP-62 NSCLC
# [4] = tested on: HT29 colon
# [5] = tested on: HS 578T breast
# [6] = tested on: NCI-H322M lung
# [7] = tested on: HCC-2998 colon
# [8] = tested on: KM12 colon
# [9] = tested on: ACHN renal
# [10] = tested on: HOP-92 NSCLC
# [11] = tested on: OVCAR-3 ovarian
# [12] = tested on: NCI-H23 lung
# [13] = tested on: UACC-257 melanoma
# [14] = tested on: HL-60(TB) leukemia
# [15] = tested on: RPMI-8226 leukemia
# [16] = tested on: A549 NSCLC
# [17] = tested on: OVCAR-5 ovarian
# [18] = tested on: NCI-H522 lung
# [19] = tested on: NCI-H460 lung
# [20] = tested on: SR leukemia
# [21] = tested on: MCF7 breast
# [22] = tested on: SK-OV-3 ovarian
# [23] = tested on: OVCAR-4 ovarian
# [24] = tested on: SNB-75 CNS
# [25] = tested on: M14 melanoma
# [26] = tested on: LOX IMVI melanoma
# [27] = tested on: NCI/ADR-RES ovarian
# [28] = tested on: EKVX NSCLC
# [29] = tested on: SW-620 colon
# [30] = tested on: SF-295 CNS
# [31] = tested on: DU-145 prostate
# [32] = tested on: CAKI-1 renal
# [33] = tested on: UACC-62 melanoma
# [34] = tested on: SF-539 CNS
# [35] = tested on: SF-268 CNS
# [36] = tested on: T-47D breast
# [37] = tested on: CCRF-CEM leukemia
# [38] = tested on: MDA-MB-435
# [39] = tested on: HCT-116 colon
# [40] = tested on: RXF 393 renal
# [41] = tested on: UO-31 renal
# [42] = tested on: K-562 leukemia
# [43] = tested on: HCT-15 colon
# [44] = tested on: COLO 205 colon
# [45] = tested on: SK-MEL-5 melanoma
# [46] = tested on: MDA-N
# [47] = tested on: 786-0 renal
# [48] = tested on: NCI-H226 lung
# [49] = tested on: A498 renal
# [50] = tested on: SN12C renal
# [51] = tested on: OVCAR-8 ovarian
compound,measurement,setting,value
CCP1(=O)OC(C)(C)CN1C(C)(C)C (configuration not stated),GI50,[1],> 100 µM
same,TGI,[1],> 100 µM
same,GI50,[2],> 100 µM
same,TGI,[2],> 100 µM
same,GI50,[3],> 100 µM
same,TGI,[3],> 100 µM
same,GI50,[4],> 100 µM
same,TGI,[4],> 100 µM
same,GI50,[5],> 100 µM
same,TGI,[5],> 100 µM
same,GI50,[6],> 100 µM
same,TGI,[6],> 100 µM
same,GI50,[7],> 100 µM
same,TGI,[7],> 100 µM
same,GI50,[8],> 100 µM
same,TGI,[8],> 100 µM
same,GI50,[9],> 100 µM
same,TGI,[9],> 100 µM
same,GI50,[10],> 100 µM
same,TGI,[10],> 100 µM
same,GI50,[11],> 100 µM
same,TGI,[11],> 100 µM
same,GI50,[12],> 100 µM
same,TGI,[12],> 100 µM
same,GI50,[13],> 100 µM
same,TGI,[13],> 100 µM
same,GI50,[14],> 100 µM
same,TGI,[14],> 100 µM
same,GI50,[15],> 100 µM
same,TGI,[15],> 100 µM
same,GI50,[16],> 100 µM
same,TGI,[16],> 100 µM
same,GI50,[17],> 100 µM
same,TGI,[17],> 100 µM
same,GI50,[18],> 100 µM
same,TGI,[18],> 100 µM
same,GI50,[19],> 100 µM
same,TGI,[19],> 100 µM
same,GI50,[20],> 100 µM
same,TGI,[20],> 100 µM
same,GI50,[21],> 100 µM
same,TGI,[21],> 100 µM
same,GI50,[22],> 100 µM
same,TGI,[22],> 100 µM
same,GI50,[23],> 100 µM
same,TGI,[23],> 100 µM
same,GI50,[24],> 100 µM
same,TGI,[24],> 100 µM
same,GI50,[25],> 100 µM
same,TGI,[25],> 100 µM
same,GI50,[26],> 100 µM
same,TGI,[26],> 100 µM
same,GI50,[27],> 100 µM
same,TGI,[27],> 100 µM
same,GI50,[28],> 100 µM
same,TGI,[28],> 100 µM
same,GI50,[29],> 100 µM
same,TGI,[29],> 100 µM
same,GI50,[30],> 100 µM
same,TGI,[30],> 100 µM
same,GI50,[31],> 100 µM
same,TGI,[31],> 100 µM
same,GI50,[32],> 100 µM
same,TGI,[32],> 100 µM
same,GI50,[33],> 100 µM
same,TGI,[33],> 100 µM
same,GI50,[34],> 100 µM
same,TGI,[34],> 100 µM
same,GI50,[35],> 100 µM
same,TGI,[35],> 100 µM
same,GI50,[36],> 100 µM
same,TGI,[36],> 100 µM
same,GI50,[37],> 100 µM
same,TGI,[37],> 100 µM
same,GI50,[38],> 100 µM
same,TGI,[38],> 100 µM
same,GI50,[39],> 100 µM
same,TGI,[39],> 100 µM
same,GI50,[40],> 100 µM
same,TGI,[40],> 100 µM
same,GI50,[41],> 100 µM
same,TGI,[41],> 100 µM
same,GI50,[42],> 100 µM
same,TGI,[42],> 100 µM
same,GI50,[43],> 100 µM
same,TGI,[43],> 100 µM
same,GI50,[44],> 100 µM
same,TGI,[44],> 100 µM
same,GI50,[45],> 100 µM
same,TGI,[45],> 100 µM
same,GI50,[46],> 100 µM
same,TGI,[46],> 100 µM
same,GI50,[47],> 100 µM
same,TGI,[47],> 100 µM
same,GI50,[48],> 100 µM
same,TGI,[48],> 100 µM
same,GI50,[49],> 100 µM
same,TGI,[49],> 100 µM
same,GI50,[50],> 100 µM
same,TGI,[50],> 100 µM
same,GI50,[51],> 100 µM
same,TGI,[51],> 100 µM

# From PubChem BioAssay (NCI)
